Laboratory results reported in ChEMBL document CHEMBL5230126, “Cyclic tailor-made amino acids in the design of modern pharmaceuticals” (Eur J Med Chem, 2020).

Sequences of proteins named here, by UniProt entry; tags and fusion partners are left off. A change or cut given only in a name is not applied to a line headed by its entry.
UniProt P41597: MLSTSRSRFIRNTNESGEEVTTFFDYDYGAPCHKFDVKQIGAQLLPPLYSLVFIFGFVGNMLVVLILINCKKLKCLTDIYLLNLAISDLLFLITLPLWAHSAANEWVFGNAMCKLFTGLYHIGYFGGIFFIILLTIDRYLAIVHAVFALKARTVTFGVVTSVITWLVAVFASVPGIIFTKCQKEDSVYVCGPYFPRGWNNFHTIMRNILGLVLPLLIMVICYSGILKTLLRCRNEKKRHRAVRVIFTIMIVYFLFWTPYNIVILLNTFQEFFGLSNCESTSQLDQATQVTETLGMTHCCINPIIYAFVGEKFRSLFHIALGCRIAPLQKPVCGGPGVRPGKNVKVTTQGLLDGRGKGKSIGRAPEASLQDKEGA

Target: C-C chemokine receptor type 2 (Homo sapiens, UniProt P41597)
Assay: Antagonist activity at CCR2 (unknown origin)

## CC(=O)N[C@@H]1C[C@H](N(C)C(C)C)CC[C@@H]1N1CC[C@H](Nc2ncnc3ccc(C(F)(F)F)cc23)C1=O
  IC50: 1.4 nM
